Like-named read-outs stand apart in the source and are kept apart here.
What was measured:
5HT7 = 5HT7 (Homo sapiens, UniProt P34969); assay: Affinity (Ki) at 5HT7, HEK293 cells stably expressing 5HT7
5HT1A = 5HT1A (Homo sapiens, UniProt P08908); design: host or cells: HEK293, transient; conditions: cited from earlier work

Protein sequences, listed by entry. Tags and fused reporters are not part of them.
UniProt P34969, whole entry: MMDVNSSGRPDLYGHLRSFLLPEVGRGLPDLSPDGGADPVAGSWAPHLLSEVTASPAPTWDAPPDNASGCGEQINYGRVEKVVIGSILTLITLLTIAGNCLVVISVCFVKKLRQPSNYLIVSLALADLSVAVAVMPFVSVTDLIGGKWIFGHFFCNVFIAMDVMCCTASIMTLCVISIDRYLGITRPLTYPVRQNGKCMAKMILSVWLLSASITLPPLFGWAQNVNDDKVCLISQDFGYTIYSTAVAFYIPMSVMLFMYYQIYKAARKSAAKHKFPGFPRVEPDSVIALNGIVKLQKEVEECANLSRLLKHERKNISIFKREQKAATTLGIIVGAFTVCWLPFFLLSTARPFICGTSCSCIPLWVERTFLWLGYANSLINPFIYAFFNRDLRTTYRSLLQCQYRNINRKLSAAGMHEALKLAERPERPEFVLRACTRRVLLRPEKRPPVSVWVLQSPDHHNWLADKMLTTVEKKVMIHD
UniProt P08908, whole entry: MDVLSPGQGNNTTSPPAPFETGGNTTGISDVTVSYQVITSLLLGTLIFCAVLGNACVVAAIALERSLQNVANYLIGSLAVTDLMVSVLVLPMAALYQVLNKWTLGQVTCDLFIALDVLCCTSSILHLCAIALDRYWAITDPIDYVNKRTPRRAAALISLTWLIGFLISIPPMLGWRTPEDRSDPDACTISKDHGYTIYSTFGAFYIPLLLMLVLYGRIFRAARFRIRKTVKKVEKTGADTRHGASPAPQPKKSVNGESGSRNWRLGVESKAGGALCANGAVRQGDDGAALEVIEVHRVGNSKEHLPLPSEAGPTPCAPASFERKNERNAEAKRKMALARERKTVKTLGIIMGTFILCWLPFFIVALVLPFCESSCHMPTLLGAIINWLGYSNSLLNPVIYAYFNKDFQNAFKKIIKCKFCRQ

Row | SMILES | Ki (5HT7) | Ki (5HT7; read-out: Affinity Ki ± SEM at 5HT7) | Function at 5HT1A (literature) (5HT1A)
1 | O=C1CC2(CCCC2)CC(=O)N1CCCCN1CCN(c2ncccn2)CC1 [Buspirone, reference compound] | > 1000 nM | > 1000 nM | –
2 | CCCN(CCC)[C@@H]1CCc2cccc(O)c2C1 [Compound 8-OH-DPAT, (R)-8-hydroxy-2-(n-di-propylamino)tetralin] | – | – | high-affinity full-efficacy 5HT1A agonist
